# In PubChem BioAssay AID602346 (Broad Institute, 2012):
# The list shows a part of the results, in another mix than the full data. Calls of active or inactive are those of the source. Rule as the data show it: active = inhibition above about 50% (passing the limit was not always enough); inconclusive = no clear call, values can overlap the other calls; inactive = below about 31%.
# Experiment: blockers of Vif multimerization in cells – imaging, HEK293T, single point, primary screen (AID 602346)
# Conditions: Vif self-association by quenched fluorescence, 24 h, at 7.49 µM, active compounds read high
row,Compound,inhibition
1,CCC(=O)N(c1ccccc1)C1(COC)CCN(CCn2nnn(CC)c2=O)CC1,inactive: 0.0285%
2,CCC(=O)N(c1ccccc1)C1(COC)CCN(CCc2cccs2)CC1,inactive: -9.68%
